Data set [1] has as its system Azocasein. In words: Azocasein hydrolysis (Abs390) by human trypsin or chymotrypsin in PAA/H2O2.
For data set [2], the system named is Azocasein. In words: Azocasein substrate method (Novo Nordisk): Alcalase activity in 7.5% H2O2.

In the case of Trypsin: human trypsin (Sigma), the entries for the “Absorbance Ratio of Trypsin/Trypsin-0.2% PAA/1.05% H2O2 solutions” value with Azocasein [1] (2.8 h) and in the data set on Azocasein [1] (7 h) were 0.86 and 0.77, respectively.

B1: Alcalase ® 2.5 L: commercial subtilisin A liquid concentrate, 2.5 Anson units per gram (Novo Nordisk) (protein, UniProt P00780 106-379, looked up)
Subtilisin Carlsberg: AQTVPYGIPLIKADKVQAQGFKGANVKVAVLDTGIQASHPDLNVVGGASFVAGEAYNTDGNGHGTHVAGTVAALDNTTGVLGVAPSVSLYAVKVLNSSGSGSYSGIVSGIEWATTNGMDVINMSLGGASGSTAMKQAVDNAYAKGVVVVAAAGNSGSSGNTNTIGYPAKYDSVIAVGAVDSNSNRASFSSVGAELEVMAPGAGVYSTYPTNTYATLNGTSMASPHVAGAAALILSKHPNLSASQVRNRLSSTATYLGSSFYYGKGLINVEAAAQ
modifications: commercial liquid concentrate
In the case of B1, the Alcalase activity in the data set on Azocasein [2] (7.5% w/w H2O2, pH 3.9 unadjusted, 3.5 min) was 0.82 AU/ml; in the data set on Azocasein [2] (7.5% w/w H2O2, pH 3.9 unadjusted, 120 min), 0.19 AU/ml; in the data set with Azocasein [2] (7.5% w/w H2O2, pH 3.9 unadjusted, 240 min) it was 0.35 AU/ml; with Azocasein [2] (7.5% w/w H2O2, pH 8.5 adjusted in 0.2 M Tris buffer, 30 min) it was 0.20 AU/ml; in the data set with Azocasein [2] (7.5% w/w H2O2, pH 8.5 adjusted in 0.2 M Tris buffer, 120 min), 0.31 AU/ml; in the data set with Azocasein [2] (7.5% w/w H2O2, pH 8.5 adjusted in 0.2 M Tris buffer, 240 min) it was 0.56 AU/ml.

Values taken from patent US6448062B1, “Simultaneous cleaning and decontaminating compositions and methods” (priority 1998, dated 2002).
